Data on 2 compounds can be found in PubChem BioAssay AID743279 (National Center for Advancing Translational Sciences (NCATS), 2014).

This is a selection; strong and weak results do not stand in their true shares. Records with an inconclusive call do not appear. Calls of active or inactive are those of the source. Rule as the data show it: active = activity change below about -50%; inconclusive = mostly about -30% to -49%; inactive = weaker than that.
% is scaled to controls: 0 for no effect and ±100 for the full control effect.

This assay can be described thus: qHTS for Inhibitors of Inflammasome Signaling: IL-1-beta AlphaLISA Primary Screen. The settings on record: THP-1 LPS/ATP IL-1B secretion, 16 h, at 57.5 µM, active compounds read low. From the text: Inflammasomes are a set of intracellular multi-protein complexes that enable autocatalytic activation of inflammatory caspases and drive the innate immune response to counter harmful agents. […] A qHTS assay, based on AlphaLISA technology, was developed to screen the Molecular Libraries Small Molecule Repository (MLSMR) to look for novel inflammasome inhibitors. The assay detects IL-1B using AlphaLISA anti-IL-1B acceptor and donor beads. A decreased emission signal, indicating reduced IL-1B secretion, is the desired outcome for this assay. NIH Chemical Genomics Center [NCGC] NIH Molecular Libraries Probe Centers Network [MLPCN] MLPCN Grant: MH095513 Assay Provider: Shyam Biswal Ph.D., Johns Hopkins University Immunity. 2012 Jul 27;37(1):85-95. PMID: 22819042 [2] Curr Pharm Des. 2012;18(16):2320-8. PMID: 22390695
Three microliters containing 3000 THP-1 cells were dispensed into the wells of solid, white, tissue culture treated Greiner 1,536-well plates. Library compounds and positive control, Glyburide, were pin-transferred (23 nL) by a Kalypsys pin-tool equipped with a 1,536-pin array, resulting in final compound concentration ranges of 2.5 nM to 57.5 uM. […] The AlphaLISA signal was read by a PerkinElmer EnVision plate reader with an ultrasensitive luminescence detector and 1536 Plate HTS AlphaScreen aperture (excitation of 680nm and emission of 615nm).
For orientation: In qHTS, concentration-response curves come from the screen itself.
On to `CCC(=O)N(c1ccccc1)C1(COC)CCN(CCn2nnn(CC)c2=O)CC1`, for which the activity change is inactive: 11.3%. As for `CCC(=O)N(c1ccccc1)C1(COC)CCN(CCc2cccs2)CC1`, the activity change was inactive: -21.6%.
